ChEMBL document CHEMBL4673405, “Novel Linker Variants of Antileishmanial/Antitubercular 7-Substituted 2-Nitroimidazooxazines Offer Enhanced Solubility” (ACS Med Chem Lett, 2021)

System: Leishmania infantum
Assay: Antileishmanial activity against Leishmania infantum MHOM/MA(BE)/67 amastigotes infected in mouse peritoneal macrophages incubated for 5 days by Giemsa staining based assay
Format: functional, organism-based
Settings: MHOM/MA(BE)/67, Peritoneal macrophage, 120 h

pIC50: 7.33
Structure (SMILES): O=[N+]([O-])c1cn2c(n1)OC(COc1ccc(OC(F)(F)F)cc1)CC2 (stereo unspecified)

pIC50: −log10 of the molar value.
